According to PubChem BioAssay AID1463 (National Center for Advancing Translational Sciences (NCATS), 2008):
Only a part is listed here, and it is no random draw. Records with an inconclusive call do not appear. Calls of active or inactive are those of the source. Calls follow the shape of the dose curve; as a rule, active = well fitted curve in the direction sought with a large enough effect; inconclusive = small, poorly fitted or top-dose-only effect; inactive = flat fitted curve, though single readings scatter.

assay: Counterscreen qHTS for Inhibitors of Tau Fibril Formation, Fluorescence Polarization; settings: tau K18 P301L (four-repeat tau fragment) Alexa594 fluorescence, heparin fibrillization; at 57.7 µM (top of the series); also: nearly all actives have a fitted effect of over 55% in size
% is scaled to controls: 0 for no effect and ±100 for the full control effect.

| Compound | activity change, negative = decrease |
| --- | --- |
| CN(CCCl)CCCl | inactive: -9.34% |
